By UniProt entry, the sequences of proteins in these tests, tags left out.
UniProt P06280, whole entry: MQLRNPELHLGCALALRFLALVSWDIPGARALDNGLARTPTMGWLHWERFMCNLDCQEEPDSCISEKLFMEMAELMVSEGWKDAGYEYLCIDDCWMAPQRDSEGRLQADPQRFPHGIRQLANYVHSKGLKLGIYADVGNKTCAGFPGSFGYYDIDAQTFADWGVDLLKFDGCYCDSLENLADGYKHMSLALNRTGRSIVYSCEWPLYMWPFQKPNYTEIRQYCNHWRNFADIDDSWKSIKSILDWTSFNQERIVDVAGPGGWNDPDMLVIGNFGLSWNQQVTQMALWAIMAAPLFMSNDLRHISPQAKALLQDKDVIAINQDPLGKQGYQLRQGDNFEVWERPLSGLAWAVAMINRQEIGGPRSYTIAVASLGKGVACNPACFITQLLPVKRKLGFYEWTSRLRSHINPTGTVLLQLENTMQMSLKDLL

“And” between values parts separate entries of the source, which are not always exact repeats. Equal entries are not always repeated. The entries are a selection whose mix differs from that of the whole data set. The source made the active and inactive calls. Calls come from the whole dose curve; as a rule, active = well fitted curve in the direction sought with a large enough effect; inconclusive = small, poorly fitted or top-dose-only effect, or effect the other way, or another doubt; inactive = no such curve, though single readings can be large or run the other way.
These molecules were tested against Alpha-galactosidase A (Homo sapiens) (UniProt P06280) (assay: qHTS Assay for Inhibitors of Human alpha-Galactosidase at pH 4.5.). Details: purified enzyme, 4-MU-alpha-Gal fluorescence; at 105 µM (top of the series) unless noted.
Excerpt: NIH Chemical Genomics Center [NCGC]
NIH Molecular Libraries Probe Production centers Network [MLPCN]
Assay Submitter (PI): Wei Zheng
Alpha-galactosidase is a homodimeric glycoprotein that hydrolyzes the terminal alpha-galactosyl moieties from glycolipids and glycoproteins. Deficiency of this enzyme results in Fabry Disease with progressive accumulation of globotriaosylceramide and other glycosphingolipids in vascular endothelial cells that causes renal failure, myocardial infarction and stroke, and premature death in patients. It has been reported that the improper folding and trafficking of alpha-galactosidase resulting from the genetic mutations may account for a significant numbers of Fabry patients. […] We optimized this alpha-galactosidase assay in 1536-well plate format for identifying the novel small molecule inhibitors with the structures other than the sugar analogs in order to develop the new pharmacological chaperones. Although this assay has the same protocol as PubChem AID 992, this is a separate project and, therefore, is published as a separate assay
NCGC Assay Protocol Summary:
This is a fluorogenic enzyme assay with 4-Methylumbelliferyl alpha-D-galactopyranoside as the substrate and human […] as the enzyme preparation. Upon the hydrolysis of this fluorogenic substrate, the resulting product, […]. 4-Methyllumbelliferone, can be excited at 365 nm and emits at 440 nm. This fluorescence which can be detected by a standard fluorescence plate reader. Data were normalized to the controls for basal activity (without enzyme) and 100% activity (with enzyme). In the AC50 values were determined from concentration-response data modeled with the standard Hill equation.
Assay buffer: 50 mM citric acid (titrated with potassium phosphate to pH 4.5), 0.005% Tween-20, pH 4.5. (pH 4.5 is an optimal condition for this enzyme assay)
1536-well assay protocol for the human alpha-galactosidase:
(1) Add 2 ul/well of enzyme (12 nM final)
(2) Add 23 nL compounds in DMSO solution. The final titration was 0.7 nM to 77 uM.
(3) Add 1 ul of substrate (400 uM final)
(4) Incubate at room temperature for 20 min.
(5) Add 2 ul stop solution (1M NaOH and 1M Glycine mixture, pH 10)
(6) Detect the assay plate in a ViewLux plate reader (PerkinElmer) with Ex=365 nm and Em=440nm.
Keywords: MLSMR, MLPCN, NIH Roadmap, qHTS, NCGC, : Alpha-galactosidase, Fabry Disease, pharmacological chaperone, chaperone therapy
`COc1ccc(OP(C)(=O)Nc2ccc(SC(F)(F)F)cc2)cc1` (stereo not given) was tested, and the activity change, negative = inhibition was inactive: -25.9%. With `CCOC(=O)c1ccc(NP(C)(=O)Oc2ccc(F)cc2)cc1` (stereo not given) the activity change, negative = inhibition was inactive: 12.4%. In the case of `Cc1ccc(NP(=O)(Oc2cccc(C)c2)Oc2cccc(C)c2)nc1`, the activity change, negative = inhibition is reported as inactive: -3.68%. With `CCOC(=O)NC(Sc1ccccc1)C(Cl)(Cl)Cl` (stereo not given) the activity change, negative = inhibition was inactive: 6.61%. With `c1ccc(-c2nn[nH]n2)c(-c2nn[nH]n2)c1` the activity change, negative = inhibition was inactive: -2.41%. `O=C(NC1CCS(=O)(=O)C1)NP(=S)(Oc1ccccc1)Oc1ccccc1` (stereo not given) was tested, and the activity change, negative = inhibition was inactive: 0.246%. For `CCNC(=S)/N=C(\N)N[N+](=O)[O-]`, the activity change, negative = inhibition was inactive: 8.25%. With `O=c1c2cc([N+](=O)[O-])ccc2[nH]c2c([N+](=O)[O-])cc([N+](=O)[O-])cc12` the activity change, negative = inhibition was inactive: -5.33%. With `CN(C)C(=O)Oc1noc2ccccc12` the activity change, negative = inhibition was inactive: -5.71%. `Cc1ccccc1OP(=O)(Nc1ccccn1)Oc1ccccc1C` was tested, and the activity change, negative = inhibition was inactive: -3.52%. In the case of `CP(=O)(Nc1ccccc1)Oc1ccc(F)cc1` (stereo not given), the activity change, negative = inhibition is reported as inactive: 5.5%. `CCC(=O)N1C2C3N(C(=O)CC)C1C1N(C(=O)CC)C(C(N1C(=O)CC)N3C(=O)CC)N2C(=O)CC` was tested, and the activity change, negative = inhibition was inactive: 1.23%. `CCN(CC)CCCOC(=O)C(O)(c1ccccc1)C1CCCCC1` (stereo not given) was tested, and the activity change, negative = inhibition was inactive: -10.6%. In the case of `CN(C(=O)Cc1ccc(Cl)c(Cl)c1)[C@@H]1CCCC[C@@H]1N1CCCC1`, the activity change, negative = inhibition is reported as inactive: -2.39%. For `CC(=O)NC(SC(=S)N(CC(C)C)CC(C)C)C(Cl)(Cl)Cl` (stereo not given), the activity change, negative = inhibition was inactive: 4.9%. For `Cc1ccc(OP(=O)(Nc2ccccn2)Oc2ccc(C)cc2)cc1`, the activity change, negative = inhibition was inactive: -23.4%. `COC(=O)c1cc2c(s1)N=C(c1ccccc1)N(C)P2(=O)N1CCOCC1` (stereo not given) was tested, and the activity change, negative = inhibition was inactive: -15.9%. In the case of `O=C(O)COc1ccc([As](=O)(O)O)cc1[N+](=O)[O-]`, the activity change, negative = inhibition is reported as inactive: -1.57%. `Nc1ccccc1[As](=O)(O)c1ccccc1` was tested, and the activity change, negative = inhibition was inactive: 12.7%. In the case of `O=P(Nc1nccs1)(Oc1ccccc1)Oc1ccccc1`, the activity change, negative = inhibition is reported as inactive: 1.13%. In the case of `O=P(Nc1nccs1)(c1ccccc1)c1nc2ccccc2s1` (stereo not given), the activity change, negative = inhibition is reported as inactive: 2.78%. `CCOP1(=S)c2c(C)nn(CCC#N)c2N=C(c2ccccc2F)N1C` (stereo not given) was tested, and the activity change, negative = inhibition was inactive: 1.61%. `CS(=O)(=O)c1cc([N+](=O)[O-])c2no[n+]([O-])c2c1` was tested, and the activity change, negative = inhibition was inactive: -2.11%. In the case of `CN(C(=O)Cc1ccccc1)[C@@H]1CC[C@]2(CCCO2)C[C@H]1N1CCCC1`, the activity change, negative = inhibition is reported as inactive: 6.06% and inactive: 2.56%. `CCOP1(=S)c2c(C)nn(CCC#N)c2N=C(c2ccc(F)cc2)N1C` (stereo not given) was tested, and the activity change, negative = inhibition was inactive: -13.3%. For `O=[N+]([O-])OCC(CO[N+](=O)[O-])(CO[N+](=O)[O-])CO[N+](=O)[O-]`, the activity change, negative = inhibition was inactive: -0.451%. For `CC1=NCCc2c1[nH]c1ccccc21.O=[N+]([O-])c1cc([N+](=O)[O-])c(O)c([N+](=O)[O-])c1`, the activity change, negative = inhibition was inactive: -9.61%. For `O=[N+]([O-])c1ccc2c(c1)nnn2O`, the activity change, negative = inhibition was inactive: 7.48%. In the case of `O=[N+]([O-])CC(O)c1ccc([N+](=O)[O-])cc1` (stereo not given), the activity change, negative = inhibition is reported as inactive: -2.97%. With `NC(=O)Nc1ccc([As](=O)(O)O)cc1` the activity change, negative = inhibition was inactive: -7.2% and inactive: -4.88%. With `Cc1cc(C)cc(OP(C)(=O)Nc2ccc(C)cc2C)c1` (stereo not given) the activity change, negative = inhibition was inactive: -4.26%. For `Cc1cccc(OCC(=O)OC2CN3CCC2CC3)c1` (stereo not given), the activity change, negative = inhibition was inactive: 2.07%. In the case of `O=[As](O)(c1cccc(O)c1)c1cccc(O)c1`, the activity change, negative = inhibition is reported as inactive: -2.63%. With `CCOC(=O)c1ccc(NP(C)(=O)Oc2cc(C)cc(C)c2)cc1` (stereo not given) the activity change, negative = inhibition was inactive: -2.3%. In the case of `CN(C(=O)Cc1ccc(Cl)c(Cl)c1)[C@@H]1CC[C@]2(CCCO2)C[C@H]1N1CCCC1`, the activity change, negative = inhibition is reported as inactive: -17.5%. `O=C(OC1CN2CCC1CC2)c1ccc(Cl)cc1` (stereo not given) was tested, and the activity change, negative = inhibition was inactive: -2.04%. For `COc1ccccc1OP(C)(=O)Nc1cccc(Br)c1` (stereo not given), the activity change, negative = inhibition was inactive: 2.33%. In the case of `O=[As](O)(O)c1cccnc1`, the activity change, negative = inhibition is reported as inactive: -0.53%. In the case of `COc1cc(C(=O)NCC2(N3CCOCC3)CCCCC2)cc(Cl)c1OC(C)C`, the activity change, negative = inhibition is reported as inactive: -13.1%. In the case of `CCOP(=O)(Nc1cccc2ccccc12)OCC`, the activity change, negative = inhibition is reported as inactive: 4.1%. For `Cc1ccc(NCCc2c([N+](=O)[O-])cc([N+](=O)[O-])cc2[N+](=O)[O-])cc1`, the activity change, negative = inhibition was inactive: 1.51%. `Nc1cccc2c([As](=O)(O)O)cccc12` was tested, and the activity change, negative = inhibition was inactive: 1.05%. `Cc1cc(C)cc(OP(C)(=O)Nc2ccccn2)c1` (stereo not given) was tested, and the activity change, negative = inhibition was inactive: 1.72%. With `CP(=O)(Nc1cccc(Br)c1)Oc1ccccc1` (stereo not given) the activity change, negative = inhibition was inactive: -4.42%. For `Cc1ccc(C)c(NP(C)(=O)Oc2ccccc2)c1` (stereo not given), the activity change, negative = inhibition was inactive: -8.83%. With `CCCOP(=S)(Nc1nc(N)cc(=O)[nH]1)OCCC` the activity change, negative = inhibition was inactive: -12.5%. `CC(C)(C)C(=O)NC(Sc1ncccn1)C(Cl)(Cl)Cl` (stereo not given) was tested, and the activity change, negative = inhibition was inactive: -7.72%. For `Clc1n[nH]nc1-c1nn[nH][15n]1`, the activity change, negative = inhibition was inactive: -0.863%. With `O=[N+]([O-])c1cc([N+](=O)[O-])c(-n2nnc3ccccc32)c([N+](=O)[O-])c1` the activity change, negative = inhibition was inactive: -4.79%. `O=P1(Nc2ccccn2)COc2ccccc2OC1` was tested, and the activity change, negative = inhibition was inactive: 9.75%. `CCOP(=O)(Nc1ccc(C)cn1)OCC` was tested, and the activity change, negative = inhibition was inactive: 4.06%. `CN(CCCl)Cc1cc(Cl)c(NC2=NCCN2)c(Cl)c1` was tested, and the activity change, negative = inhibition was inactive: -3.13%. In the case of `CN(C(=O)Cc1ccc(Cl)c(Cl)c1)[C@@H]1CCCC[C@H]1N1CCCC1`, the activity change, negative = inhibition is reported as inactive: -19.1% and inactive: -1.61%. With `CC(C)/C=N\N=C(\N)N[N+](=O)[O-]` the activity change, negative = inhibition was inactive: -7.55%. With `Cc1nc2ccc3ccccc3c2s1.O=[N+]([O-])c1cc([N+](=O)[O-])c(O)c([N+](=O)[O-])c1` the activity change, negative = inhibition was inactive: -3.46%. For `O=[As](O)(c1ccccc1Br)c1ccccc1Br`, the activity change, negative = inhibition was inactive: 0.385%. With `CN(C)C1(CNC(=O)c2ccc(S(C)(=O)=O)cc2)CCCCC1` the activity change, negative = inhibition was inactive: 13.4%. In the case of `O=[N+]([O-])c1cc([N+](=O)[O-])c(Nc2nnnn2CCO)c([N+](=O)[O-])c1`, the activity change, negative = inhibition is reported as inactive: -10.8%. In the case of `O=C(/C=C/c1ccccc1)OC1CN2CCC1CC2` (stereo not given), the activity change, negative = inhibition is reported as inactive: 0.569%. For `CC1CCC(C(C)C)C(OP(=O)(Nc2ccccn2)c2ccccc2)C1` (stereo not given), the activity change, negative = inhibition was inactive: -12.1%.
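Note: 0% = full activity with enzyme and -100% = basal without enzyme.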
